Reference: patent publication US11274090B2, “P300/CBP HAT inhibitors” (Constellation Pharmaceuticals, Inc., priority 2018, dated 2022)

Amino acid sequences for entries named in this document (tags omitted). Residues count along the entry.
UniProt Q09472, 1287-1666 limits assumed: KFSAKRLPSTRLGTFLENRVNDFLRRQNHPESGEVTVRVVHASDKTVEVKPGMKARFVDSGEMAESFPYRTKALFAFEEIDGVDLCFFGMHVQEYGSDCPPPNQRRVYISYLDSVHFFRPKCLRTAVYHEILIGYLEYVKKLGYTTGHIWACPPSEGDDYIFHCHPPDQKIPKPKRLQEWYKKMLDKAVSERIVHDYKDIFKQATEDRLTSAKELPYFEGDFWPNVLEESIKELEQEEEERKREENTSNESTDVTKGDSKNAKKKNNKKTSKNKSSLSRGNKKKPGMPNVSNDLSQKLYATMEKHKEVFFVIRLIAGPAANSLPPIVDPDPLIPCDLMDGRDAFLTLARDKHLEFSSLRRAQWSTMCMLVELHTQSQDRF

Biological target: p300 HAT domain (residues 1287-1666) (Homo sapiens (Human), UniProt Q09472)
Assay: p300 HAT SPA assay (scintillation proximity assay, acetylation of biotinylated H3(1-21) peptide)
Type: biochemical
Details: read-out: P300 HAT SPA IC50, average of at least 2 replicate titrations

IC50 [µM] | Compound
3.48 | CC(=O)N1CCC(c2ccc(NC(=O)C(NCCc3ccc(Cl)cc3)c3ccccc3)cc2)CC1 (single isomer, unassigned) [21 Isomer 1]
> 5 | CC(=O)N1CCC(c2ccc(NC(=O)C(NCCc3ccc(Cl)cc3)c3ccccc3)cc2)CC1 (single isomer, unassigned) [21 Isomer 2]
